Assays:
OGD/R-treated HT22 cells [1] = system: OGD/R-treated HT22 cells
OGD/R-treated HT22 cells [2] = details: 10 μM pretreatment 4 h

`Cn1cc(-c2cnc(N)n3nc(-c4ccco4)nc23)ccc1=O` [1a] was tested, and the COX-2 immunofluorescence staining (OGD/R-treated HT22 cells [1]; 10 μM pretreatment 4 h) was “lack of COX-2”, the “mRNA expression of inflammation markers Nos2, Vcam-1 and II1b, qRT-PCR” value (OGD/R-treated HT22 cells [1]; 10 μM pretreatment 4 h) was “consistent with the protein expression” and the “caspase-1 (p20), IL-18 and IL-1β expression (western blot)” value (OGD/R-treated HT22 cells [1]; 1–10 μM pretreatment 4 h) was “reduced”. The “antiapoptotic Bcl-2 staining (immunofluorescence)” value (OGD/R-treated HT22 cells [2]) was “enhanced” and the “mRNA expression of apoptosis markers (p53, Bax, Bcl-2), qRT-PCR” value (OGD/R-treated HT22 cells [2]) was “consistent with the protein expression”.
